Laboratory results from US5856161.

Biological target: endogenous p60 TNF receptor (human) (UniProt P19438)
Assay: 35S-labelled cdk2 added to U937 cell lysates, immunoprecipitation with affinity-purified anti-p60 receptor antibodies, PhosphorImager

fold increase in binding (TNF-treated against untreated cells): 10 fold
Substance: cdk2 (from UniProt P24941) (enzyme)
